Experimental data from patent publication US8716333B2, “Process and compounds for the manufacture of oseltamivir and analogs thereof, and new antiviral agents” (Brock University, priority 2009, dated 2014).

Target: T1, Neu1 sialidase (Mus musculus, UniProt O35657)
T1 construct: endogenous in cells; host or cells: RAW-blue macrophage cells
Assay: LPS-induced Neu1 sialidase activity in live RAW-blue macrophage cells (4MU-NeuAc fluorescence)
Type: cell-based
Description: Inhibitory Potency of Compounds of the Application on Lipopolysaccharide (LPS)-Induced Neu1 Sialidase Activity in Live Raw-Blue Macrophage Cells
Compounds of the application were assessed for antiviral activity using an assay that detects sialidase activity on the surface of viable cells. […] Fluorescent images were taken at 1-2 minutes after adding the substrate using epi-fluorescent microscopy (40× objective). The mean fluorescence surrounding the cells for each of the images was measured using Image J software.

`CCOC(=O)C1=C[C@@H](OC(CC)CC)[C@H](NC(C)=O)[C@@H](N)C1` [oseltamivir phosphate 1a (Tamiflu ®), oseltamivir phosphate, reference compound] was tested, and the IC50 was 0.02 µM.
